Target: Bromodomain-containing protein 4 (Homo sapiens, UniProt O60885)
Test: Displacement of biotinylated ligand from recombinant His-tagged BRD4 bromodomain-1 (unknown origin) measured after 10 mins by TR-FRET assay

IC50 [µM]	Compound
12	CNC(=O)c1cccc(Nc2nn(CC3CC3)c3c2CN(C(C)=O)CC3)c1
13	CC(=O)N1CCc2c(c(Nc3cccc(C(=O)N(C)C)c3)nn2CC2CC2)C1

Source: ChEMBL document CHEMBL3864133, “Discovery of a Potent and Selective in Vivo Probe (GNE-272) for the Bromodomains of CBP/EP300” (J Med Chem, 2016)
